The source of these data is paper PMC3269097 (Journal of Medicinal Chemistry, 2011).

The chains behind the UniProt entries cited, without tags or fusion partners. Residues count along the entry.
UniProt Q62645, 28-1323: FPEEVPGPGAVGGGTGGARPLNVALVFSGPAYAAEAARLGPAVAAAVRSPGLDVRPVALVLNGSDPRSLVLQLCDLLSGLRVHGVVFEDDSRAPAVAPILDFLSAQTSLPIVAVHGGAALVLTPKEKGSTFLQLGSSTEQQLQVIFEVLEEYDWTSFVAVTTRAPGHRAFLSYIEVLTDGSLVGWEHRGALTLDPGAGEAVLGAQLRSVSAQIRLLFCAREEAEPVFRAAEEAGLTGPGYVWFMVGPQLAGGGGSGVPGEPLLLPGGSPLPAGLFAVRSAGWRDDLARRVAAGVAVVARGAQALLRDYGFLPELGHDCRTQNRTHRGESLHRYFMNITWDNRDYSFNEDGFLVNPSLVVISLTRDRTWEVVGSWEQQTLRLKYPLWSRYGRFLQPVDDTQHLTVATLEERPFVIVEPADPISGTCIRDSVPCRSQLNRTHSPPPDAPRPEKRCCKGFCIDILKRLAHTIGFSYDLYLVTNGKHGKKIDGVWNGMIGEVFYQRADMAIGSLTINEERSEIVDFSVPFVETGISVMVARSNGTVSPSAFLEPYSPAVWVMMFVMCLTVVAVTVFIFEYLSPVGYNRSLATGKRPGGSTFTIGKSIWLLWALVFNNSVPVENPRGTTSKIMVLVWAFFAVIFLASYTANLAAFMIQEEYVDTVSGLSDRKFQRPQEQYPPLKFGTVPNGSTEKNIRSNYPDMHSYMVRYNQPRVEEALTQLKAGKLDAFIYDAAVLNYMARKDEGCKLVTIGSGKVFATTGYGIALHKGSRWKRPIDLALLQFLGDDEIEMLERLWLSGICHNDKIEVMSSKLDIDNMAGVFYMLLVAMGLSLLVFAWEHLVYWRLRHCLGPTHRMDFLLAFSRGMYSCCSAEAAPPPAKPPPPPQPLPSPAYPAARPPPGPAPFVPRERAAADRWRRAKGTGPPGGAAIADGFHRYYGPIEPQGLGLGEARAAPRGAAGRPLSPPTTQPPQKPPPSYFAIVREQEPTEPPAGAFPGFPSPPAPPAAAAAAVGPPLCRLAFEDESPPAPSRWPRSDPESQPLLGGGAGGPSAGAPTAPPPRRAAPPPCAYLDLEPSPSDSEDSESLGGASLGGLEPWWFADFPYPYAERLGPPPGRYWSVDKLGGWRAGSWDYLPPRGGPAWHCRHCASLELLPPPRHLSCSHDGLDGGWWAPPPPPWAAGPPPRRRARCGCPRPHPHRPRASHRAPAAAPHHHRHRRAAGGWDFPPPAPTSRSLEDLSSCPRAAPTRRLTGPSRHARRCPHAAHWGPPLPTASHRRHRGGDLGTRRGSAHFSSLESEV
UniProt P39086, 31-905 isoform P39086-2 limits assumed: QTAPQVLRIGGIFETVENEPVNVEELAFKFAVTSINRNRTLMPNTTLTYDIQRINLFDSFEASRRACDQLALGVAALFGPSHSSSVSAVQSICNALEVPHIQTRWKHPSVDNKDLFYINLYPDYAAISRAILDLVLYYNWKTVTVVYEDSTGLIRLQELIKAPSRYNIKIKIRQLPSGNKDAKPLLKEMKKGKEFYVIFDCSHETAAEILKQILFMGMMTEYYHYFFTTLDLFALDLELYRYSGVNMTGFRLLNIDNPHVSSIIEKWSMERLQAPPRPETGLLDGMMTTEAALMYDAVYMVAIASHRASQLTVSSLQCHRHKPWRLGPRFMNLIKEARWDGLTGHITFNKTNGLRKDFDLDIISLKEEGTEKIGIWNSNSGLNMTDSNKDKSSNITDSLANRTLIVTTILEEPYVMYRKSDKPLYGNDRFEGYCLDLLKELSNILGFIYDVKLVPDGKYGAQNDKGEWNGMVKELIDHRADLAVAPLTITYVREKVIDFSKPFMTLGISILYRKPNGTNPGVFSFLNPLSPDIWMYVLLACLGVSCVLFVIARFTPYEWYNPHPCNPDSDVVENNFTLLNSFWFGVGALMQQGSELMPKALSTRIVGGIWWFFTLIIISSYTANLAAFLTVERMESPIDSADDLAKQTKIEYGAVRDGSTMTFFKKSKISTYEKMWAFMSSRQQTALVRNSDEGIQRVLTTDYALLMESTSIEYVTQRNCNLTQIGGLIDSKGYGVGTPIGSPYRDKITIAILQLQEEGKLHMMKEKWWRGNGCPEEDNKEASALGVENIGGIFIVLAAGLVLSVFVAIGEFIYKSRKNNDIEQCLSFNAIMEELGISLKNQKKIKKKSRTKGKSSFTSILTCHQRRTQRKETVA

For one assay, the target named is GluN1a/GluN2D NMDAR (Rattus norvegicus, UniProt Q62645). The format is cell-based. The settings on record: from Ki values.
Another assay concerns the target human GluK1 (Homo sapiens, UniProt P39086). The format is cell-based. To be noted: from KB values.

The structures appear in SMILES notation. Some results are limits rather than exact numbers.

As to `O=C(O)[C@H]1NCCN(C(=O)c2ccc3cc(-c4ccccc4)ccc3c2)[C@H]1C(=O)O` (relative stereo) [Compound 18d, (2R*,3S*)-1-(6-Phenylnaphthalene-2-carbonyl)piperazine-2,3-dicarboxylic acid], on GluN1a/GluN2D NMDAR, the “selectivity for GluN2D versus GluN2A” value is reported as over 10 fold and the “selectivity for GluN2D versus GluN2B” value is recorded as over 10 fold. For the molecule `O=C(O)[C@H]1NCCN(C(=O)c2ccc(C#Cc3ccccc3)cc2)[C@H]1C(=O)O` [Compound 18k], on human GluK1, the “fold lower affinity for GluK1 compared to 34b” value is “approximately 2 fold”.
